Excerpt: However, the depsipeptide unit is not considered to be a material which exerts temperature responsibility in an aqueous solvent containing no organic solvent. […] Accordingly, the depsipeptide unit -Gly-X2-Cly-Hmb-Pro-(X2=any α-amino acid residue) is thought to be unsuitable as a temperature responsive material and thus has not been investigated intensively.

water solubility	Substance	temperature responsibility in aqueous solvent
	Poly(Gly-Val-Gly-Hmb-Ala-Pro)	temperature responsibility thereof was confirmed
had water solubility	Poly(Gly^1-Val^2-Gly^3-Hmb^4-Pro^5) [poly(Gly-Val-Gly-Hmb-Pro)]	had temperature responsibility

From patent publication US20090275730A1, “Temperature responsive depsipeptide polymer” (priority 2004, published 2009)
